Earlier results, collected in article PMC5249144, “T Cell Subset and Stimulation Strength-Dependent Modulation of T Cell Activation by Kv1.3 Blockers” (PLoS ONE, 2017).

Tested on: allergic airway inflammation
Settings: ref [40]; cited from earlier work
Source text: In order to better understand the therapeutic potential of Kv1.3 blockers therefore, we investigated the effects of Kv1.3 blockers on T cells activated by disease relevant antigens. […] The ...

Substance: CTLA4-Ig: CD28 blocker, FDA-approved T cell inhibitor which blocks co-stimulatory CD28 signals
- efficacy in allergic airway inflammation, in words: efficacious in the treatment of allergic airway inflammation
